For 1 compound, activation results are on record in PubChem BioAssay AID651671 (Sanford-Burnham Center for Chemical Genomics, 2012).

The nature of the test: activation of alpha-dystroglycan glycosylation – single concentration, Pro5-aDG cells, confirmation (AID 651671).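 Further: cells exposed to compound for two days before detection; 0% = DMSO-treated Pro5 cells and 100% = DMSO-treated B10-LARGE cells.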 As to conditions: alpha-DG glycosylation, IIH6 AlphaLISA, stronger effect = higher value, screened at 10 µM (by protocol), scaled to LARGE-overexpressing B10 cells as 100%. In general terms: Alpha assays give light when donor and acceptor beads are brought close together.

SMILES strings stand for the structures. Only a part is listed here, and it is no random draw. Calls of active or inactive are those of the source.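 How the source made its calls: active means activation of at least 7% in one or more replicates; inactive means the rest.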

As to `CCCCn1nnnc1C(c1cccs1)N1CCC(n2c(=O)[nH]c3ccccc32)CC1` (stereo unspecified), the activation was inactive: -2.09%.
